US20210038737A1 (OHIO STATE INNOVATION FOUNDATION, published 2021)

Target: CAL PDZ domain (CALP5-His) (UniProt Q9HD26 288-371)
Assay: FP competition, condition A: probe peptide 26 (50 nM) with 100 nM CALP5-His; competitor titrated

IC50: 4.52 µM
B1: peptide 1: Ac-Arg-Arg-Phe-Trp-Gln-Cys-Thr-Arg-Val-OH (peptide)
peptide: RRFWQCTRV
modifications: N-terminal acetyl (Ac)
notes: Synthetic peptide; also called Compd 1; Compound 1
